These are literature values, as cited in patent US8445533B2, “Andrographolide derivatives to treat viral infections” (Cornell Research Foundation, Inc., priority 2004, dated 2013).

The data set concerns H9 cell. The following applies: cited from earlier work.

As for “dehydroandrographolide succinic acid monoester [DASM]”, the “concentrations nontoxic to the H9 cell” value was 50 to 200 µg/mL.
